In publication PMC2633461, “Porcine sclera as a model of human sclera for in vitro transport experiments: histology, SEM, and comparative permeability” (Molecular Vision, 2009):
Read-outs that look alike come from different tables or passages of the source.

Columns and labels:
[1] = porcine sclera
Procedure: Porcine globes were obtained from pigs (Large White, Landrance, Duroc; 10–11 months) that ranged in weight 145–190 kg and came from a local slaughterhouse. Porcine eyes were either used within 24 h of explantation or frozen at −80 °C until use. After thawing, the adherent muscle tissue was removed from the eye bulb, and the anterior segment of the eye was circumferentially cut behind the limbus. The eye was then cut into two halves, the vitreous was removed, and the anterior sclera was used for permeation experiments after the removal of the underling tissues using a cotton swab. The frozen tissues were used within three months of explantation.
(§1) Permeation experiments were performed in Franz-type diffusion cells with an area of 0.2 cm^2 for human sclera and 0.6 cm^2 for porcine sclera.
(§2) To reduce edge damage, a thin layer of silicone lubricant was applied to the glass surface, and the minimum force necessary to keep the cell sealed was applied.
(§3) The receptor compartment contained 4 ml of 25 mM HEPES buffer (pH 7.4) added with 0.9% NaCl, kept at 37 °C, and magnetically stirred. […] At predetermined time intervals, the receptor solution was sampled for the determination of drug permeated.
(§4) The transscleral flux, i.e., the amount of drug that crosses 1 cm^2 of sclera in 1 h (J, µg/cm^2h) was calculated as the slope of the regression line at the steady-state while the lag time was the intercept of the regression line on the x-axis. The permeability coefficient (P, cm/s) was calculated as J/Cv where Cv represents the concentration of the donor solution.
(§5) Experiments performed with human sclera were replicated three to four times while those performed on porcine sclera were replicated five to seven times. All the experiments were performed using previously frozen tissues, and acetaminophen permeability was tested also through fresh pig sclera.
(§6) Acetaminophen and insulin were analyzed by HPLC with a Perkin-Elmer instrument (Norwalk, CT), which is made of an isocratic pump LC250 an UV detector LC290, and the Perkin Elmer Turbochrom Workstation software.
(§7) Acetaminophen was analyzed using a C18 Novapak® column (150×3.9 mm; Waters, Milford, MA) and a mobile phase composed of 92% (v/v) 10 mM sodium acetate pH 4 and 8% (v/v) acetonitrile, which was pumped at 1 ml/min. The detector was set at 254 nm.
(§8) Insulin was analyzed using a C18 Symmetry300® column (250×4.6 mm; Waters) at 40 °C and a mobile phase composed of 73% (v/v) aqueous phase and 27% (v/v) acetonitrile, which was pumped at 1 ml/min. The aqueous phase contained anhydrous sodium sulfate 28.4 g/l and phosphoric acid 2.7 ml/l and was adjusted at pH 2.3 with ethanolamine. The detector was set at 214 nm.
(§9) The excitation and emission λ were 490 and 520 nm, respectively.

[2] = Procedure: Human corneal-scleral rims, which were discarded following harvesting of the corneal button (Regional Cornea Bank, Bologna, Italy), were frozen in liquid nitrogen and used within 15 days of explantation.
as §1, §2, §3, §4, §5, §6, §7, §8, §9

[3] = ref 11 (Cruysberg et al.); cited from earlier work

## fluorescein isothiocyanate (FITC)-dextran [FD-150]
[1]
  Permeability coefficient relative to acetaminophen: 100 times
[1]; previously frozen, Franz-type cell 0.6 cm^2, donor 4.9 mg/ml acetaminophen, 1 mg/ml FD-150 or 1 mg/ml insulin in 25 mM HEPES pH 7.4, receptor HEPES pH 7.4 + 0.9% NaCl (0.3% BSA for insulin), 37 °C, slope at steady state, HPLC-UV (FD-150 fluorescence), mean±SEM, n = 5-7, SEM
  Flux: 0.57±0.03 µg/cm^2h
[1]; previously frozen, intercept of the regression line on the x-axis, donor pH 7.4, 37 °C, mean±SEM, n = 5-7, SEM
  Lag-time: 57 ± 7 min
[1]; from P = DK/H with H = tissue thickness (1.25 mm), mean±SEM, SEM
  DK (diffusion coefficient x partition coefficient): 0.019±0.009 cm^2/s x10^−6
[2]; human sclera
  Permeability coefficient relative to acetaminophen: 100 times lower
[2]; human sclera, previously frozen, Franz-type cell 0.2 cm^2, donor pH 7.4 HEPES, 37 °C, P = J/Cv, mean±SEM, n = 3-4
  P (permeability coefficient): 0.48±0.067 cm/s x10^−6
[2]; human sclera, previously frozen, intercept of the regression line on the x-axis, donor pH 7.4, 37 °C, mean±SEM, n = 3-4, SEM
  Lag-time: 28 ± 7 min
[2]; human sclera, from P = DK/H with H = tissue thickness (0.59 mm), mean±SEM, SEM
  DK (diffusion coefficient x partition coefficient): 0.028±0.004 cm^2/s x10^−6
[2]; ratio human / pig sclera flux
  Flux through human sclera relative to pig sclera: 3 times
[3]
  Permeability coefficient through human sclera (literature): approximately 1.0x10^−7 cm/s
